Screens from PubChem.
Rows were chosen to be rich in hits. Some 2.8% of all compounds tested hit in one or more screens of this group.
UUG fidelity: yeast start codon fidelity modulation; AID 602363; activity score, % at 18.7 µM; S. cerevisiae UUG-firefly luciferase reporter, luminescence/redox ratio; 0.13% of 350,000 active;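 active means replicate mean at a twofold rise or more, about +100% in these data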;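 further: firefly luciferase made from a UUG start codon reports start codon fidelity; reporter light over untreated wells divided by growth signal over untreated wells; some hits fall short of that in this replicate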
MITF TRPM1 HTS: MITF TRPM1 promoter activation in melanoma cells | SK-MEL-5 TRPM1-promoter luciferase, 24 h; % of positive control, neutral wells = 0 | activation, % at 12.5 µM | 0.75% of 300,000 active | AID 588334;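 active = mean activation of at least 80% with every replicate also reaching 80%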
esBAF inh: inhibitors of esBAF chromatin remodeling in mouse ES cells; Bmi1-luciferase knock-in reporter, 24 h; 100% = twice the neutral-well signal; reporter increase, % at 12.5 µM; 2% of 350,000 active; in the data active = activation above about 40%;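 note: a rise in the Bmi1 reporter signal indicates esBAF inhibition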
PglD DTNB: PglD (C. jejuni) enzyme inhibition; purified PglD enzyme, DTNB colorimetric CoA detection; inhibition, % at 12.5 µM; 0.098% of 360,000 active; AID 602405; in the data active = inhibition above about 16%, passing the limit was not always enough
Wnt act: Wnt/beta-catenin pathway activation; Wnt/beta-catenin reporter cell assay, activator, plate reader; activation, % at 9.35 µM; 1.2% of 300,000 active; in the data active = activation above about 30%, passing the limit was not always enough
miR-122 sensor: miR-122 inhibition in Huh7 cells | Huh7 miR-122 Renilla luciferase sensor, 48 h; neutral wells = 0, positive control = 100 | activation (reporter increase), % at 12.5 µM | 0.3% of 340,000 active;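 active = mean replicate activation score at least 90 and every replicate individually at or above 90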;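 note: higher luciferase means less miR-122 activity so hits act as miR-122 inhibitors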
A number is an active result.

`CC1=NN(c2ccccc2)C(=O)C1N=Nc1ccccc1` (stereo not drawn) gave MITF TRPM1 HTS inactive and Wnt act 57.
CCC(=O)Nc1ccc2c(c1)OC[C@H](C)N(C(=O)CC1CC1)C[C@@H](C)[C@H](OC)CN(C)C2=O was read as UUG fidelity inactive, esBAF inh inactive, PglD DTNB inactive and miR-122 sensor inactive.
Screening CCC(=O)N(C)C[C@H]1Oc2cc(-c3ccccc3OC)ccc2S(=O)(=O)N([C@H](C)CO)C[C@@H]1C returned UUG fidelity inactive, esBAF inh inactive, PglD DTNB inactive and miR-122 sensor inactive.
For O=C1c2ccncc2C(=O)N1CNc1ccc(Cl)cc1 the results were MITF TRPM1 HTS inactive and Wnt act 60.
CC(C)C1CC(=O)NC(SCC(=O)Nc2ccc(Br)cc2)=C1C#N (stereo not drawn) was read as UUG fidelity inactive, MITF TRPM1 HTS inactive, esBAF inh 99, PglD DTNB inactive, Wnt act inactive and miR-122 sensor inactive.
CC(=O)c1ccc(-c2ccc([C@H]3[C@H]4C=CC[C@@H](C)[C@@H]4C(=O)N3Cc3ccccc3)c(F)c2)cc1 was read as UUG fidelity inactive, MITF TRPM1 HTS inactive, esBAF inh inactive, PglD DTNB inactive, Wnt act inactive and miR-122 sensor inactive.
For COc1ccc(-c2ccc(C(C)=O)cc2)cc1[C@H]1[C@H]2C=CC[C@@H](C)[C@@H]2C(=O)N1Cc1ccccc1 the results were UUG fidelity inactive, MITF TRPM1 HTS inactive, esBAF inh inactive, PglD DTNB inactive, Wnt act inactive and miR-122 sensor inactive.
`COc1ccc(-c2cc([C@H]3[C@H]4C=CC[C@@H](C)[C@@H]4C(=O)N3Cc3ccccc3)ccc2F)cc1OC` gave UUG fidelity inactive, MITF TRPM1 HTS inactive, esBAF inh 48, PglD DTNB inactive, Wnt act inactive and miR-122 sensor inactive.
`COC(=O)c1ccc(-c2ccc([C@H]3[C@H]4C=CC[C@@H](C)[C@@H]4C(=O)N3Cc3ccccc3)c(F)c2)cc1` gave UUG fidelity inactive, esBAF inh 59, PglD DTNB inactive and Wnt act inactive.
`COC(=O)c1ccc(-c2ccc(OC)c([C@H]3[C@H]4C=CC[C@@H](C)[C@@H]4C(=O)N3Cc3ccccc3)c2)cc1` gave UUG fidelity inactive, MITF TRPM1 HTS inactive, esBAF inh 79, PglD DTNB inactive, Wnt act inactive and miR-122 sensor inactive.
O=C(Cc1ccccn1)N[C@@H]1CC[C@H](CC(=O)N2CCCCC2)O[C@H]1CO was read as UUG fidelity inactive, esBAF inh inactive and PglD DTNB inactive.
COc1ccc(OCC(=O)N/N=C(\C)c2ccc(-n3ccnc3)cc2)cc1 was read as MITF TRPM1 HTS inactive, esBAF inh inactive, Wnt act inactive and miR-122 sensor inactive.
Screening C/C(=N\NC(=O)COc1ccc(C(C)(C)C)cc1)c1ccc(-n2ccnc2)cc1 returned UUG fidelity inactive, MITF TRPM1 HTS inactive, esBAF inh 48, PglD DTNB inactive and miR-122 sensor inactive.
`Cc1ccc(Nc2nc(C(=O)NCc3ccco3)cs2)cc1` gave UUG fidelity inactive, MITF TRPM1 HTS inactive, esBAF inh inactive, PglD DTNB inactive and miR-122 sensor 162.
For O=C(NCc1ccco1)c1cc(-c2ccc(F)cc2)on1 the results were MITF TRPM1 HTS inactive, esBAF inh inactive and miR-122 sensor inactive.
`O=C(NCc1ccco1)c1ccc(C(=O)NCc2ccco2)cc1` gave MITF TRPM1 HTS inactive and Wnt act inactive.
Screening O=C(NCc1ccco1)c1cc(-c2ccccc2)on1 returned UUG fidelity inactive, MITF TRPM1 HTS inactive, esBAF inh 105, PglD DTNB inactive and miR-122 sensor inactive.
For CCC1=Nc2cc(C(=O)NCc3ccco3)ccc2Sc2ccc(C)cc21 the results were UUG fidelity inactive, MITF TRPM1 HTS inactive, PglD DTNB inactive, Wnt act inactive and miR-122 sensor 119.
CCN(CC)C(=O)c1csc(Nc2ccc(C)cc2)n1 was read as UUG fidelity inactive, esBAF inh inactive, PglD DTNB inactive and miR-122 sensor inactive.
`O=C(NCc1ccco1)c1ccc2ccccc2c1` gave UUG fidelity inactive, MITF TRPM1 HTS 90, esBAF inh 72, PglD DTNB inactive and miR-122 sensor inactive.
Screening O=C(Nc1ccc2c(c1)OCO2)N[C@@H]1CC[C@H](CCNC(=O)C2CCOCC2)O[C@@H]1CO returned UUG fidelity inactive, esBAF inh inactive and PglD DTNB inactive.
CCC(=O)N1CC[C@H]2[C@@H]1c1cc(-c3ccccc3F)ccc1N(C)[C@H]2CO was read as UUG fidelity inactive, esBAF inh inactive, PglD DTNB inactive and miR-122 sensor inactive.
`COc1ccccc1N=c1oc2c(OC)cccc2cc1C(=O)NCc1ccco1` gave UUG fidelity inactive, MITF TRPM1 HTS inactive, esBAF inh 52, PglD DTNB inactive and miR-122 sensor inactive.
Screening COc1ccc(OC)c(N=c2oc3c(OC)cccc3cc2C(=O)NCc2ccco2)c1 returned UUG fidelity inactive, MITF TRPM1 HTS inactive, esBAF inh inactive, PglD DTNB inactive and miR-122 sensor inactive.
`COc1ccc(C(=O)Nc2ccccc2C(=O)NCc2ccco2)cc1OC` gave UUG fidelity inactive, esBAF inh inactive, PglD DTNB inactive, Wnt act 48 and miR-122 sensor inactive.
CCc1nc2ccc(C(=O)NCCc3ccco3)cc2nc1CC was read as UUG fidelity inactive, MITF TRPM1 HTS 87, esBAF inh 53, PglD DTNB inactive and miR-122 sensor inactive.
Screening C[C@H](CO)N1C[C@H](C)[C@H](CN(C)C(=O)Nc2cccc3ccccc23)Oc2ccc(NS(=O)(=O)c3cn(C)cn3)cc2CC1=O returned UUG fidelity inactive, esBAF inh inactive, PglD DTNB inactive and miR-122 sensor inactive.
`O=C(O)C/C(=C\c1cc(Br)cs1)c1nc2ccccc2o1` gave UUG fidelity inactive, MITF TRPM1 HTS inactive, esBAF inh 83, PglD DTNB inactive, Wnt act inactive and miR-122 sensor inactive.
Screening Cc1ccsc1/C=C(\CC(=O)O)c1nc2ccccc2o1 returned UUG fidelity inactive, MITF TRPM1 HTS inactive, esBAF inh inactive, PglD DTNB inactive, Wnt act inactive and miR-122 sensor inactive.
O=C(NC1CC1)C1Nc2ccc(OC(F)(F)F)cc2C2C=CCC12 (stereo not drawn) was read as UUG fidelity inactive, MITF TRPM1 HTS inactive, esBAF inh inactive, PglD DTNB inactive, Wnt act 39 and miR-122 sensor inactive.
COc1cccc(NC(=O)N(C)C[C@@H]2Oc3cc(C#CC4(O)CCCC4)ccc3S(=O)(=O)N([C@@H](C)CO)C[C@@H]2C)c1 was read as esBAF inh inactive, PglD DTNB inactive and miR-122 sensor inactive.
`Cc1ccc(-n2nnc(-c3cccnc3Cl)n2)cc1` gave UUG fidelity inactive, MITF TRPM1 HTS inactive, esBAF inh inactive, PglD DTNB inactive, Wnt act 31 and miR-122 sensor inactive.
